In article PMC7047604 (Journal of medicinal chemistry, 2020):

How the values were obtained:
male C57BL/6 mice = details: mouse, in vivo
in vitro = details: mouse, microsomes, pH 7.4, metabolic half-life in MLM, abstract statement

## CCOc1ccc(CNCc2ccccc2)cc1CNC(=O)[C@@H](N)Cc1c(C)cc(O)cc1C.O=C(O)C(F)(F)F [Compound 19, (S)-1-((5-((benzylamino)methyl)-2-ethoxybenzyl)amino)-3-(4-hydroxy-2,6-dimethylphenyl)-1-oxopropan-2-aminium trifluoroacetate]
Male C57BL/6 mice
  antinociception in AASA at 10 mg/kg: showed antinociception

## CCOc1ccc(CN2Cc3ccccc3C2)cc1CNC(=O)[C@@H](N)Cc1c(C)cc(O)cc1C.O=C(O)C(F)(F)F [Compound 17, (S)-1-((2-ethoxy-5-(isoindolin-2-ylmethyl)benzyl)amino)-3-(4-hydroxy-2,6-dimethylphenyl)-1-oxopropan-2-aminium trifluoroacetate]
In vitro
  half-life at 1 μM: > 1 h

## CCOc1ccc(CN2CCc3ccccc3C2)cc1CNC(=O)[C@@H](N)Cc1c(C)cc(O)cc1C.O=C(O)C(F)(F)F [Compound 18, (S)-1-((5-((3,4-dihydroisoquinolin-2(1H)-yl)methyl)-2-ethoxybenzyl)amino)-3-(4-hydroxy-2,6-dimethylphenyl)-1-oxopropan-2-aminium trifluoroacetate]
Male C57BL/6 mice
  antinociception in AASA at 10 mg/kg: showed antinociception
